This note sets out measurements from article PMC10518340, “Secreted LRPAP1 binds and triggers IFNAR1 degradation to facilitate virus evasion from cellular innate immunity” (Signal Transduction and Targeted Therapy, 2023).

In this experiment the test system is IFNAR1. The experiment can be described thus: IFNAR1 mRNA level, HEK-293T cells. Type of experiment: cell-based, human. The note with it: with or without 1000 U/ml IFN-α2b.

On to “LDL-receptor-related protein-associated protein 1 [LRPAP1]”, for which the “IFNAR1 mRNA level” value is “no effect on IFNAR1 mRNA levels”.
